Key:
[1] = Metabolic stability in human liver microsomes
Experimental: (§1) Experimental Procedures S3: Metabolic stability in human and mouse liver microsomes
(§2) These profiling studies were carried out as described in Mullangi R. et. al. Preclinical assessment of
(§3) ulixertinib, a novel ERK1/2 inhibitor, ADMET & DMPK, 2017, 212-223;

The chains behind the UniProt entries cited, without tags or fusion partners.
UniProt O55239, whole entry: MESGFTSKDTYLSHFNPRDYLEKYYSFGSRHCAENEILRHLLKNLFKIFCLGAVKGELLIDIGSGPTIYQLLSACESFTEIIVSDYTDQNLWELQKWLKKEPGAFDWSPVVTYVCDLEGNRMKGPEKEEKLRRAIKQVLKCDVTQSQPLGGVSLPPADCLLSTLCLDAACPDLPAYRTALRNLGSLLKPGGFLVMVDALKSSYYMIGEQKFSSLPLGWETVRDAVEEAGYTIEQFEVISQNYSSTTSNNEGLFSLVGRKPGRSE
UniProt P40261, whole entry: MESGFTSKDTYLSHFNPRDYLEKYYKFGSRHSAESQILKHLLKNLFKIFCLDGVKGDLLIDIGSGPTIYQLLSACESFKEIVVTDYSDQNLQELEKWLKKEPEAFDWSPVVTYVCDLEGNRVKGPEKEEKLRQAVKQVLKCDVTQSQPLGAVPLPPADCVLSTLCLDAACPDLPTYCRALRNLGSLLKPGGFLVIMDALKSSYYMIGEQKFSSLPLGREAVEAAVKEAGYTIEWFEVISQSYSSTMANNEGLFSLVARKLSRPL

[2] = biological target: mouse NNMT (Mus musculus, UniProt O55239); assay: Fluorescence-based NNMT enzymatic assay (mouse enzyme)
Experimental: (§4) Experimental Procedures S2: Fluorescence-based NNMT enzymatic assay
(§5) NNMT activity was measured by fluorescence based assay. The product MNA formed in the reaction reacts with acetophenone in the presence of KOH and formic acid and forms a fluorescent product 2, 7- naphthyridine. The fluorescence intensity measured with excitation at 375nm and emission at 430nm. Inhibitors were screened using human, mouse and monkey NNMT enzymes. Different concentrations of inhibitors were pre-incubated along with 5ng/well of human NNMT enzyme and 3.42ng/well of mouse NNMT enzyme for 30 minutes at room temperature. Reaction was initiated by addition of SAM and nicotinamide mixture (7µM, 20µM, 8µM SAM and 6µM, 20µM, 9µM nicotinamide for human, mouse and monkey NNMT assays respectively) and incubated for 60 minutes at 37°C. The final assay reaction mixture contained a buffer of 100mM Tris Hcl pH 7.5, 0.04% BSA, 2mM Dithiothreitol and 1% DMSO. The reaction was terminated by addition of Ethanol: Acetophenone mix (75% ethanol: 25% Acetophenone) and 5M potassium Hydroxide prepared with 50% Ethanol. […] A fluorescent product 2, 7- naphthyridine was measured in a Tecan reader with excitation at 375nm and emission at 430nm. The IC50 values were determined by fitting the inhibition curves (percent inhibition versus inhibitor concentration) using a four parametric sigmoidal dose response in graph pad prism. […]

[3] = biological target: human NNMT (Homo sapiens, UniProt P40261); assay: Fluorescence-based NNMT enzymatic assay (human enzyme); conditions: read-out: hNNMT IC50
Experimental: as §4, §5

[4] = Metabolic stability in mouse liver microsomes
Experimental: as §1, §2, §3

[5] = Metabolic stability in rat liver microsomes

HLM % Remaining at 1 h [1]: 30%
IC50 ([2]; read-out: mNNMT IC50): 440 nM
increase in mNNMT enzymatic potency ([2]; relative to (1)): two-fold increase
IC50 [3]: 300 nM
MLM % Remaining at 1 h [4]: < 5%
RLM % Remaining at 1 h [5]: < 5%
Compound: Cc1nn(CC(C)(O)C(=O)N2CCN(c3cccc4cnccc34)CC2)cc1-c1cccc(F)c1 (racemic)
